# Laboratory results: ChEMBL document CHEMBL1201862, “PubChem BioAssay data set” (2004)
# This is one part of the list. Rule as the data show it: active = GI50 up to about 1.1 µM and inactive = higher. These assays gave more results; the selection is not random.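 48-hour exposure; five concentrations; linearly interpolated endpoints. GI50 marks 50% less growth.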 For part of these data: Results with a measured potency or affinity are listed apart.
# Legend:
# Experiment in all cases: NCI tumour cell line growth inhibition, 48 h
# 786-0 = system: 786-0
# ACHN = system: ACHN
# DU-145 = system: DU-145
# HCC 2998 = system: HCC 2998
# MDA-MB-231 = system: MDA-MB-231
# MDA-MB-435 = system: MDA-MB-435
# MDA-N = system: MDA-N
# NCI/ADR-RES = system: NCI/ADR-RES
# OVCAR-5 = system: OVCAR-5
# PC-3 = system: PC-3
# T47D = system: T47D
# TK-10 = system: TK-10
# NCI-H226 = system: NCI-H226
# CCRF-CEM = system: CCRF-CEM
# DLD-1 = system: DLD-1
# DMS-114 = system: DMS-114
# DMS-273 = system: DMS-273
# HL-60 = system: HL-60
# HOP-18 = system: HOP-18
# KM-20L2 = system: KM-20L2
# M19-MEL = system: M19-MEL
# SNB-78 = system: SNB-78
# XF498 = system: XF498
smiles,measurement,setting,value
CCN(CCO)CCO.Oc1c(Cl)c(Cl)c(Cl)c(Cl)c1Cl,GI50,786-0,inactive: 22.3 µM
same,GI50,ACHN,inactive: 18.6 µM
same,GI50,DU-145,inactive: 30.5 µM
same,GI50,HCC 2998,inactive: 17.9 µM
same,GI50,MDA-MB-231,inactive: 19.5 µM
same,GI50,MDA-MB-435,inactive: 29 µM
same,GI50,MDA-N,inactive: 22.8 µM
same,GI50,NCI/ADR-RES,inactive: 20.6 µM
same,GI50,OVCAR-5,inactive: 16.4 µM
same,GI50,PC-3,inactive: 21.7 µM
same,GI50,T47D,inactive: 22.8 µM
same,GI50,TK-10,inactive: 20.8 µM
N1=C(c2nnn[nH]2)NNC(c2nnn[nH]2)=N1,GI50,786-0,inactive: > 100 µM
same,GI50,ACHN,inactive: > 100 µM
same,GI50,DU-145,inactive: > 100 µM
same,GI50,MDA-MB-231,inactive: > 100 µM
same,GI50,MDA-MB-435,inactive: > 100 µM
same,GI50,MDA-N,inactive: > 100 µM
same,GI50,NCI-H226,inactive: > 100 µM
same,GI50,NCI/ADR-RES,inactive: > 100 µM
same,GI50,OVCAR-5,inactive: > 100 µM
same,GI50,PC-3,inactive: > 100 µM
same,GI50,T47D,inactive: > 100 µM
same,GI50,TK-10,inactive: > 100 µM
CC1=C[C@H]2O[C@@H]3[C@H](O)[C@@H](O)[C@](C)([C@@]2(O)CC1)[C@]31CO1,GI50,CCRF-CEM,active: 0.205 µM
same,GI50,DLD-1,active: 0.191 µM
same,GI50,DMS-114,active: 0.156 µM
same,GI50,DMS-273,active: 0.222 µM
same,GI50,HCC 2998,active: 0.21 µM
same,GI50,HL-60,active: 0.185 µM
same,GI50,HOP-18,active: 0.746 µM
same,GI50,KM-20L2,active: 0.243 µM
same,GI50,M19-MEL,active: 0.157 µM
same,GI50,NCI-H226,active: 0.24 µM
same,GI50,SNB-78,active: 0.294 µM
same,GI50,XF498,active: 0.239 µM
